# Patent US11331393B2, “Renal-homing peptide conjugates and methods of use thereof” (BLAZE BIOSCIENCE, INC., priority 2017, dated 2022)
# Like-named read-outs stand apart in the source and are kept apart here.
# Assays:
# kidney = conditions: ^14C-methylated peptide, intravenous, 30-100 nmol per mouse
# [1] = test system: kidney cortex / proximal tubules; conditions: 10 nmol lysozyme-dye conjugate, 20 hours (FIG. 7C, 7D); 'has been shown to accumulate'; cited from earlier work
Substance,accumulation of ^14C signal in kidney (kidney; 3 hours after administration (FIG. 3A)),accumulation of ^14C signal in kidney (kidney; 24 hours after administration (FIG. 3B)),"kidney uptake relative to control peptide-AF647 (kidneys; 10 nmol SEQ ID NO: 4-AF647 or 10 nmol control peptide-AF647 i.v., 4 hours, three mice per cohort, p-value of 0.015 (Student's unpaired t-test))","nature of renal peptide uptake (kidneys; self-competition, unlabeled versus AF647-labeled SEQ ID NO: 4, 4 hours, i.v.)",accumulation in the proximal tubules (positive control) [1]
GSSCEPGRTFRDRCNTCRCGADGRSAACTLRACPNQ [SEQ ID NO: 4],accumulation of ^14C signal,accumulation of ^14C signal,significantly higher extent,specific and saturable,
lysozyme,,,,,accumulate in the proximal tubules
